Test results as given in ChEMBL document CHEMBL5214925, “Dual-target inhibitors of indoleamine 2, 3 dioxygenase 1 (Ido1): A promising direction in cancer immunotherapy” (Eur J Med Chem, 2022).

Tested on: Lewis lung carcinoma
Assay: Antitumor activity against Lewis lung carcinoma cell in C57BL/6 mouse assessed as decrease in tumor volume at 60 mg/kg relative to control
Design: scale not given: the % may be the effect or the level left

With `COP(C)(=O)NCCCNc1nonc1/C(=N/O)Nc1ccc(F)c(Br)c1` (stereo unspecified) the Activity was 73%.
